Target: M4 receptor (Homo sapiens, UniProt P08173)
Assay: Calcium flux (FLIPR) potentiation assay in cells stably expressing M4 receptor
Format: cell-based
Conditions: read-out: M4 FLIPR EC50; CHO-K1/M4/Gα15 cells; potentiation of acetylcholine (EC20) calcium flux
Description: Test example 1. Determination of the effect of the compounds of the present invention on calcium current in cells stably expressing M1-M5 receptors
To detect the potentiating effect of compounds on calcium flux activity in CHO-K1/human M1/3/5 and CHO-K1/Gα15 M2/4 cells.
384-well assay plate, 384-well plate, FLIPR Tip, FLIPR Penta plate reader, Dispendix non-contact nanoliter dispensing system (liquid handling workstation), liquid handler.
Ham's F-12 Nutrient Mix, foetal bovine serum, P/S (Gibco: 15140122), HBSS (Gibco: 14025076), HEPES (Gibco: 15630080), FLIPR calcium 6 assay kit (Molecular Devices: R8190), Probenecid (PBA) (Invitrogen: P36400), Acetylcholine chloride (Sigma: A6625-25G) Complete culture medium: DMEM + 10% FBS + 1X P/S; Cell seeding medium: DMEM + 10% FBS + 1X PS; Assay buffer 1: 1X HBSS + 20 mM HEPES +2.5 mM Probenecid; Assay buffer 2: 1X HBSS + 20 mM HEPES; Cell line: CHO-K1/M1; CHO-K1/M2/Gα15; CHO-K1/M3; CHO-K1/M4/Gα15; CHO-K1/M5. […]
FLIPR Penta was used to read and collect the fluorescence signal value (RFU). The maximum RFU value was used to calculate the percent activation data based on the readings of the Low control (DMSO control group) and High control (ACh EC100) experimental groups {% activation rate = (RFUsample - RFUlow control) / (RFUhigh control - RFUlow control)×100}. […]

The chains behind the UniProt entries cited, without tags or fusion partners.
UniProt P08173, whole entry: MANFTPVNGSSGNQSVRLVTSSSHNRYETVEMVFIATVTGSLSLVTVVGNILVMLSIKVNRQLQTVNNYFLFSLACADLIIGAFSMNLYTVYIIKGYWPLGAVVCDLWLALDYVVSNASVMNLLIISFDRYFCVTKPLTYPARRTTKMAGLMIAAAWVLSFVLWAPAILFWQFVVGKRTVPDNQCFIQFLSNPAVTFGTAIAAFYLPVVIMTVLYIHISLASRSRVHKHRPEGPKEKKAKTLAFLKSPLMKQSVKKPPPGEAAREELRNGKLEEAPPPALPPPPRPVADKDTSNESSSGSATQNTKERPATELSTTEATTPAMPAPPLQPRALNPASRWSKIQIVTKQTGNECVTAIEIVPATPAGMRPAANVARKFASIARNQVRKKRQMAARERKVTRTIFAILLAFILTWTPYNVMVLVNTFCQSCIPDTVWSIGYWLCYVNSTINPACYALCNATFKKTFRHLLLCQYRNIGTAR

`Cc1c2c(c3ncnn3c1C)CN(C(=O)CC1CN(c3cc(OC4CC4)ncc3Cl)C1)C2` was tested, and the EC50 was 33.9 nM.
